Measurements published in US20260384421A1, “NOVEL COMPOUNDS THAT CAN BE USED AS THERAPEUTIC AGENTS” (published 2026).
pIC50: −log10 of the molar value. Read-outs that look alike come from different tables or passages of the source.

Experiments:
HCT-116 cells = test: alamarBlue proliferation assay with HCT-116 cells; details: read-out: Activity on HCT-116: IC50, McCoy's 5A medium, 10% FBS
NCI-H460 cells = test: alamarBlue proliferation assay with NCI-H460 cells; details: read-out: Activity on NCI-H460: IC50, RPMI 1640 medium, 10% FBS
Description: (§1) These hyperproliferative processes can be benign or malignant and include hyperplasia, neoplasia, cancer and pre-cancerous lesions, and metastases. The antiproliferative activities of compounds falling under general formula (I) were investigated on human primary epidermal keratinocytes (HPEK) and human, murine and canine cell lines derived from hyperproliferative tissue or different cancer types, including MDA-MB-231, ZR-75-30, HCC-1395, HCC-1937, and T-47D all originating from cancer of the breast, JURKAT, RPMI-8402, LOUCY, TANQUE, REC-1, HL-60, NB-4 all originating from different types of blood cancer including lymphoma and leukemia of T-cells, B-cells and myeloid cells, TT originating from cancer of the neuroendocrine system, HeLa originating from cancer of the cervix, 23132/87, SW-948, and HCT-116 all originating from cancer of the gastrointestinal tract including stomach and colon, BHY originating from cancer of the mucosal epithelium, A-431 originating from cancer of the skin, HEP-G2 originating from cancer of the liver, NCI-H460 and A-549 both originating from cancer of the lung, PANC-1 originating from cancer of the pancreas, U-87 MG originating from cancer of the brain, A-375 and RVH-421 both originating from cancer of melanocytes, SW-1353 originating from cancer of bone-derived chondrocytes, C2C12 a mouse cell line originating from hyperproliferative muscle progenitor cells, LL/2 a mouse cell line originating from cancer of the lung, CF21.T a dog cell line originating from cancer of the connective tissue. To this end, according cells were seeded into 96-well plates (CORNING #3598) suitable for fluorescence assays at following initial cell numbers: 1000 cells per well for HPEK; 3000 cells per well for MDA-MB-231, 8000 cells per well for ZR-75-30, 1500 cells per well for HCC-1395, 1500 cells per well for HCC-1937, 3000 cells per well for T-47D, 1500 cells per well for JURKAT, 5000 cells per well for RPMI-8402, 9000 cells per well for LOUCY, 1500 cells per well for TANQUE, 9000 cells per well for REC-1, 1000 cells per well for HL-60, 1000 cells per well for NB-4, 9000 cells per well for TT, 2000 cells per well for HeLa, 2000 cells per well for 23132/87, 9000 cells per well for SW-948, 700 cells per well for HCT-116, 1500 cells per well for BHY, 700 cells per well for A-431, 1500 cells per well for HEP-G2, 500 cells per well for NCI-H460, 1000 cells per well for A-549, 1500 cells per well for PANC-1, 2500 cells per well for U-87 MG, 700 cells per well for A-375, 1500 cells per well for RVH-421, 2000 cells per well for SW-1353, 500 cells per well for C2C12, 500 cells per well for LL/2, and 3000 cells per well for CF21.T. In a volume of 90 μL per well of culture medium the cells were treated with compounds at indicated final concentrations by adding 10 μL per well of 10× compound working solutions from 1:100 pre-diluted 1000× compound DMSO stock-solutions in H2O (Water For Injection, WFI, Fisher Scientific, Gibco™ #A12873) or with the empty carrier DMSO (AppliChem, #A3672) at 0.1% v/v as control yielding a final volume of 100 μL per well. At day 5 after starting the treatments the cells were subjected to the alamarBlue® Proliferation Assay (Bio-Rad Serotec GmbH, BUF012B) according to the protocol of the manufacturer. The readout was taken with a multi-well plate-reader (Tecan Spark®) in the fluorescence mode with applying a filter for excitation at 560 nm (band width 10 nm) and for emission at 590 nm (band width 10 nm). Treatment for maximum proliferation inhibition with the commercial cytotoxic compound (S)-(+)-camptothecin (Fluorochem #M01564) at a concentration of 10 μM was included on each plate for assay quality control. Some of the test compounds of the present invention may have been obtained and applied as their salt forms.
(§2) The assays were performed in duplicate or more replicates of independent single experiments each containing a three- to six-fold replicate for every condition. […]

BHY cells = test: alamarBlue proliferation assay with BHY cells; details: read-out: Activity on BHY: IC50, DMEM medium, 10% FBS
HPEKp cells = test: proliferation assay with human epidermal keratinocyte progenitors (HPEKp), selectivity versus MDA-MB-231
TANQUE cells = test: alamarBlue proliferation assay with TANQUE cells; details: read-out: Activity on TANOUE: IC50, RPMI 1640 medium, 10% FBS
RVH-421 cells = test: alamarBlue proliferation assay with RVH-421 cells (glucose-free L-15 medium); details: read-out: Activity on RVH-421: IC50, Leibovitz's L-15 medium, 10% FBS, 0% CO2
Description: as §1, §2

MDA-MB-231 cells = test: alamarBlue proliferation assay with MDA-MB-231 cells (glucose-free Leibovitz's L-15 medium)
HL-60 cells = test: alamarBlue proliferation assay with HL-60 cells; details: read-out: Activity on HL-60: IC50, RPMI 1640 medium, 10% FBS
Description: as §1, §2

SW-948 cells = test: alamarBlue proliferation assay with SW-948 cells (glucose-free L-15 medium); details: read-out: Activity on SW-948: IC50, Leibovitz's L-15 medium, 10% FBS, 0% CO2
Description: as §1, §2

NB-4 cells = test: alamarBlue proliferation assay with NB-4 cells; details: read-out: Activity on NB-4: IC50, RPMI 1640 medium, 10% FBS
A-375 cells = test: alamarBlue proliferation assay with A-375 cells; details: read-out: Activity on A-375: IC50, DMEM medium, 10% FBS
Description: as §1, §2

A-549 cells = test: alamarBlue proliferation assay with A-549 cells; details: read-out: Activity on A-549: IC50, DMEM medium, 10% FBS
LL/2 cells = test: alamarBlue proliferation assay with LL/2 cells; details: read-out: Activity on LL/2: IC50; LL/2 murine Lewis lung carcinoma cells, DMEM medium, 10% FBS
A-431 cells = test: alamarBlue proliferation assay with A-431 cells; details: read-out: Activity on A-431: IC50, DMEM medium, 10% FBS
Description: as §1, §2

HEP-G2 cells = test: alamarBlue proliferation assay with HEP-G2 cells; details: read-out: Activity on HEP-G2: IC50, RPMI 1640 medium, 10% FBS
SW-1353 cells = test: alamarBlue proliferation assay with SW-1353 cells (glucose-free L-15 medium); details: read-out: Activity on SW-1353: IC50, Leibovitz's L-15 medium, 10% FBS, 0% CO2
Description: as §1, §2

[1] = read-out: Activity (HPEK): antiproliferative activity on HPEK cells, IC50 category, HPEK cells cultivated in CnT-Prime medium
[2] = read-out: Activity (MDA): antiproliferative activity on MDA-MB-231 cells, IC50 category, MDA-MB-231 cells cultivated in glucose-free Leibovitz's L-15 medium
[3] = read-out: Activity on MDA-MB-231 (IC50), glucose-free Leibovitz's L-15, 10% FBS, day 5, alamarBlue
[4] = read-out: Activity (HPEK), HPEK cells (HPEKp), antiproliferative activity, class by IC50
[5] = read-out: Activity (MDA), MDA-MB-231 cells, antiproliferative activity, class by IC50

Compound	pIC50 (HCT-116 cells)	pIC50 (NCI-H460 cells)	pIC50 (BHY cells)	pIC50 (HPEKp cells; [1])	pIC50 (TANQUE cells)	pIC50 (RVH-421 cells)	pIC50 (MDA-MB-231 cells; [2])	pIC50 (MDA-MB-231 cells; [3])	pIC50 (HL-60 cells)	pIC50 (SW-948 cells)	pIC50 (NB-4 cells)	pIC50 (HPEKp cells; [4])	pIC50 (A-375 cells)	pIC50 (MDA-MB-231 cells; [5])	pIC50 (A-549 cells)	pIC50 (LL/2 cells)	pIC50 (A-431 cells)	pIC50 (HEP-G2 cells)	pIC50 (SW-1353 cells)
CN(c1ccc(C(=O)N2CCN(Cc3ccccc3)CC2)cc1)c1ccc(C2CCC3(CC2)OCCO3)cc1	≥ 5.30	≥ 5.30	≥ 5.30	> 5.00	≥ 5.30	≥ 5.30	> 5.30	≥ 5.30	≥ 5.30	≥ 5.30	≥ 5.30								
COC1CCC(c2ccc(Oc3ccc(C(=O)N4CCN(Cc5ccc(Cl)cc5)CC4)cc3)cc2)CC1 (centres unmarked)								≥ 6.70				> 5.30	≥ 6.70	> 6.00	≥ 6.00				
O=C(c1ccc(Oc2ccc(C3CCC4(CC3)OCCO4)cc2CO)cc1)N1CCN(Cc2ccc3ncccc3c2)CC1		≥ 5.30		> 5.00		≥ 6.70	> 6.00	≥ 6.70	≥ 5.30	≥ 6.00									
COC1CCC(c2ccc(Oc3ccc(C(=O)N4CCN(Cc5ccc(Cl)cc5)CC4)nc3)c(CO)c2)CC1 (centres unmarked)	≥ 6.70		≥ 6.70		≥ 6.70			≥ 6.70			≥ 6.70	> 5.00	≥ 6.70	> 6.00	≥ 6.70	≥ 6.70	≥ 6.70	≥ 6.70	
COc1ccc(CN2CCN(C(=O)c3ccc(Oc4ccc(C5CCC6(CC5)SCCCS6)cc4C=O)cn3)CC2)cc1													≥ 6.70						
O=Cc1cc(C2CCCCC2)ccc1Oc1ccc(C(=O)N2CCN(Cc3ccc(OC(F)(F)F)cc3)CC2)cc1	≥ 6.70		≥ 6.70		≥ 6.70						≥ 6.70		≥ 6.70		≥ 6.70	≥ 6.00	≥ 6.70		
O=C(c1ccc(Oc2ccc(C3CCCCC3)cc2CO)cc1)N1CCN(Cc2ccc(S(F)(F)(F)(F)F)cc2)CC1	≥ 6.70		≥ 6.70		≥ 6.70						≥ 6.70		≥ 6.70		≥ 6.70	≥ 6.70	≥ 6.70		
Cn1cccc1CN1CCN(C(=O)c2ccc(Oc3ccc(C4CCC5(CC4)OCCO5)cc3CO)cc2)CC1		≥ 5.30				≥ 6.00		≥ 6.70	≥ 5.30	≥ 5.30									
COC1CCC(c2ccc(Oc3ccc(C(=O)N4CCN(Cc5ccc(Cl)cc5)CC4)nc3)cc2)CC1 (centres unmarked)								≥ 6.70				> 5.00	≥ 6.70	> 6.00	≥ 6.70				
COC1CCC(c2ccc(Oc3ccc(C(=O)N4CCN(Cc5ccc(Cl)cc5)CC4)cc3)c(O)c2)CC1 (centres unmarked)													≥ 6.00		≥ 6.00		≥ 5.30		
O=C(c1ccc(Oc2ccc(C3CCC4(CC3)OCCO4)cc2CO)cc1)N1CC2CC1CN2Cc1ccccc1 (centres unmarked)		≥ 4.70		< 5.00		≥ 5.30	> 6.00	≥ 6.00	≥ 5.30	≥ 5.30					≥ 5.30				≥ 5.30
